Where two headings read alike, the source gives them in different places. Blank lines part the entries; values can stand above or below the compound they belong to.
How the values were obtained:
[1] = target: GST-tagged full-length FAK enzyme (PTK2) (Homo sapiens, UniProt Q05397); assay: Biochemical Omnia Assay (FAK); conditions: read-out: FAK Activity Biochemical OMNIA, [ATP] = 50uM, mean IC50
FAK = FAK (Homo sapiens, UniProt Q05397); assay: Cell-based capture ELISA for inhibition of FAK autophosphorylation [pY397] in U87MG cells
[2] = read-out: FAK Activity Mechanistic (U87MG) HP, 50% (v/v) human plasma, mean IC50
[3] = read-out: FAK Activity Mechanistic (U87MG) MP, 50% (v/v) mouse plasma, mean IC50
[4] = read-out: FAK Activity Mechanistic (U87MG) NP, no plasma present, mean IC50

Sequences of proteins named here, by UniProt entry; tags and fusion partners are left off.
UniProt Q05397, whole entry: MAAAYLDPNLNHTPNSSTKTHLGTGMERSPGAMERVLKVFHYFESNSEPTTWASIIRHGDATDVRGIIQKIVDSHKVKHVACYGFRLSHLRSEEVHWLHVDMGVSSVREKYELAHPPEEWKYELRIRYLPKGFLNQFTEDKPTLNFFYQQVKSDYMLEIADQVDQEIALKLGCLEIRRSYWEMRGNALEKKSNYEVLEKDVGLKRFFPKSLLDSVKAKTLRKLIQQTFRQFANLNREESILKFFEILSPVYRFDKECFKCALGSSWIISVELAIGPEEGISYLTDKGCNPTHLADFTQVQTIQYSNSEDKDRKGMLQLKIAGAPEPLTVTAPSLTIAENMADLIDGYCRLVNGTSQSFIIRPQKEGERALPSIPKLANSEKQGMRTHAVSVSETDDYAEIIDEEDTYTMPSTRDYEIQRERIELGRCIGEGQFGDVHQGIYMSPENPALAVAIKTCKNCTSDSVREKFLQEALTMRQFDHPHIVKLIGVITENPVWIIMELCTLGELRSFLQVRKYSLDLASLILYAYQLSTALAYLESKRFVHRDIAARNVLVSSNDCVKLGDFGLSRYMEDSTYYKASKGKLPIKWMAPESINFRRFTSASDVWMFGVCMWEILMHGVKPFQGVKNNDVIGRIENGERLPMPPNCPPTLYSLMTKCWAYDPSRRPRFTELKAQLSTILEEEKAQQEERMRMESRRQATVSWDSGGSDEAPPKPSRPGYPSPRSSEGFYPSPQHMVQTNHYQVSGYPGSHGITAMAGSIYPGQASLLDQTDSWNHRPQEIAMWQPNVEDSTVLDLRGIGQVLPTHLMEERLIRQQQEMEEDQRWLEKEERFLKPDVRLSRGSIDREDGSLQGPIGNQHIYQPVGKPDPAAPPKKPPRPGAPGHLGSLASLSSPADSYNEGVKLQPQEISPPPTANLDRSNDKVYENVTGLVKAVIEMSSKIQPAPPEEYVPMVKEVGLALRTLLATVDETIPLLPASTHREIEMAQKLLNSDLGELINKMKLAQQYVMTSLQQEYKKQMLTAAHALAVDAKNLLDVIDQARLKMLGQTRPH

SMILES: CCOP1(=O)Cc2ccc(c(OC)c2)Nc2ncc(C(F)(F)F)c(n2)Nc2ccc(cc2C(=O)NC)-c2cnn(c2)CCCO1 (single isomer, unassigned) [4B]
IC50 [1]: < 400 nM
IC50 (FAK; [2]): < 400 nM
IC50 (FAK; [3]): < 400 nM
IC50 (FAK; [4]): < 400 nM

SMILES: CCCP1(=O)Cc2ccc(c(OC)c2)Nc2ncc(C(F)(F)F)c(n2)Nc2ccc(nc2C(=O)NC)-c2cnn(c2)CCCO1 (centres unmarked)
IC50 [1]: < 400 nM
IC50 (FAK; [2]): < 400 nM
IC50 (FAK; [3]): < 400 nM
IC50 (FAK; [4]): < 400 nM

SMILES: CCOP1(=O)Cc2ccc(c(OC)c2)Nc2ncc(C(F)(F)F)c(n2)Nc2ccc(nc2C(=O)NC)-c2cn(nn2)CCCO1 (single isomer, unassigned)
IC50 [1]: < 400 nM
IC50 (FAK; [2]): < 400 nM
IC50 (FAK; [3]): < 400 nM
IC50 (FAK; [4]): < 400 nM

IC50 [1]: < 400 nM
IC50 (FAK; [2]): < 400 nM
IC50 (FAK; [3]): < 400 nM
IC50 (FAK; [4]): < 400 nM
SMILES: CNC(=O)c1nc2ccc1Nc1nc(ncc1C(F)(F)F)Nc1ccc(cc1OC)CP(C)(=O)OCCCn1cc-2cn1 (single isomer, unassigned) [Example 61A]

SMILES: CCOP1(=O)Cc2ccc(c(OC)c2)Nc2ncc(C(F)(F)F)c(n2)Nc2ccc(nc2C(=O)NC)-c2cn(nc2OC)CCCO1 (centres unmarked)
IC50 [1]: < 400 nM
IC50 (FAK; [2]): < 400 nM
IC50 (FAK; [3]): < 400 nM
IC50 (FAK; [4]): < 400 nM

SMILES: CCOP1(=O)Cc2ccc(c(Cl)c2)Nc2ncc(C(F)(F)F)c(n2)Nc2ccc(nc2C(=O)NC)-c2cnn(c2)CCCO1 (centres unmarked)
IC50 [1]: < 400 nM
IC50 (FAK; [2]): 400 to 4000 nM
IC50 (FAK; [3]): 400 to 4000 nM
IC50 (FAK; [4]): < 400 nM

SMILES: CCOP1(=O)Cc2ccc(c(OC)c2)Nc2ncc(C(F)(F)F)c(n2)Nc2ccc(nc2C(=O)NC)-c2cnn(c2)C(C)(C)CCO1 (centres unmarked)
IC50 [1]: < 400 nM
IC50 (FAK; [2]): < 400 nM
IC50 (FAK; [3]): < 400 nM
IC50 (FAK; [4]): < 400 nM

SMILES: CNC(=O)c1nc2ccc1Nc1nc(ncc1C(F)(F)F)Nc1ccc(cc1OC)CP(C)(=O)OCC(C)(C)Cn1cc-2cn1 (single isomer, unassigned) [62B]
IC50 (FAK; [2]): < 400 nM
IC50 (FAK; [3]): < 400 nM
IC50 (FAK; [4]): < 400 nM

SMILES: CCP1(=O)Cc2ccc(c(OC)c2)Nc2ncc(C(F)(F)F)c(n2)Nc2ccc(nc2C(=O)NC)-c2cnn(c2)CCCO1 (centres unmarked)
IC50 [1]: < 400 nM
IC50 (FAK; [2]): < 400 nM
IC50 (FAK; [3]): < 400 nM
IC50 (FAK; [4]): < 400 nM

SMILES: CCOP1(=O)Cc2ccc(c(OC)c2Cl)Nc2ncc(C(F)(F)F)c(n2)Nc2ccc(nc2C(=O)NC)-c2cnn(c2)CC2(COC2)CO1 (single isomer, unassigned) [55B]
IC50 [1]: < 400 nM
IC50 (FAK; [2]): > 4000 nM
IC50 (FAK; [3]): > 4000 nM
IC50 (FAK; [4]): 400 to 4000 nM

SMILES: CCCP1(=O)Cc2ccc(c(OC)c2)Nc2ncc(C(F)(F)F)c(n2)Nc2ccc(cc2C(=O)NC)-c2cnn(c2)CCCO1 (single isomer, unassigned) [66B]
IC50 [1]: < 400 nM
IC50 (FAK; [2]): < 400 nM
IC50 (FAK; [3]): < 400 nM
IC50 (FAK; [4]): < 400 nM

SMILES: CNC(=O)c1nc2ccc1Nc1nc(ncc1C(F)(F)F)Nc1ccc(cc1OC)CP(=O)(OC(C)C)OCCCn1cc-2cn1 (centres unmarked)
IC50 (FAK; [2]): < 400 nM
IC50 (FAK; [3]): < 400 nM
IC50 (FAK; [4]): < 400 nM

SMILES: CCOP1(=O)Cc2cc(OC)c(cc2Cl)Nc2ncc(C(F)(F)F)c(n2)Nc2ccc(nc2C(=O)NC)-c2cnn(c2)CCCO1 (centres unmarked)
IC50 [1]: < 400 nM
IC50 (FAK; [2]): > 4000 nM
IC50 (FAK; [3]): > 4000 nM
IC50 (FAK; [4]): 400 to 4000 nM

SMILES: CCOP1(=O)Cc2ccc(c(OC)c2)Nc2ncc(C(F)(F)F)c(n2)Nc2ccc(nc2C(=O)NC)-c2cn(nc2Cl)CCCO1 (centres unmarked)
IC50 [1]: < 400 nM
IC50 (FAK; [2]): < 400 nM
IC50 (FAK; [3]): 400 to 4000 nM
IC50 (FAK; [4]): < 400 nM

SMILES: CCNC(=O)c1nc2ccc1Nc1nc(ncc1C(F)(F)F)Nc1ccc(cc1OC)CP(=O)(OCC)OCC1(COC1)Cn1cc-2cn1 (centres unmarked)
IC50 [1]: < 400 nM
IC50 (FAK; [2]): < 400 nM
IC50 (FAK; [3]): < 400 nM
IC50 (FAK; [4]): < 400 nM

SMILES: CCOP1(=O)Cc2ccc(c(OC)c2)Nc2ncc(C(F)(F)F)c(n2)Nc2ccc(nc2C(=O)NC)-c2cn(nc2C)CC2(COC2)CO1 (single isomer, unassigned) [Example 60A]
IC50 [1]: < 400 nM
IC50 (FAK; [2]): < 400 nM
IC50 (FAK; [3]): < 400 nM
IC50 (FAK; [4]): < 400 nM

SMILES: CCOP1(=O)Cc2ccc(c(Cl)c2)Nc2ncc(C(F)(F)F)c(n2)Nc2ccc(nc2C(=O)NC)-c2cnn(c2)CC2(COC2)CO1 (centres unmarked)
IC50 [1]: < 400 nM
IC50 (FAK; [2]): < 400 nM
IC50 (FAK; [3]): < 400 nM
IC50 (FAK; [4]): < 400 nM

SMILES: CNC(=O)c1nc2ccc1Nc1nc(ncc1C(F)(F)F)Nc1ccc(cc1OC)CP(C)(=O)OCC(C)(C)Cn1cc-2cn1 (single isomer, unassigned) [62A]
IC50 (FAK; [2]): < 400 nM
IC50 (FAK; [3]): 400 to 4000 nM
IC50 (FAK; [4]): < 400 nM

SMILES: CCOP1(=O)Cc2cc(OC)c(cc2Cl)Nc2ncc(C(F)(F)F)c(n2)Nc2ccc(nc2C(=O)NC)-c2cnn(c2)CC2(COC2)CO1 (single isomer, unassigned)
IC50 [1]: < 400 nM
IC50 (FAK; [2]): < 400 nM
IC50 (FAK; [3]): < 400 nM
IC50 (FAK; [4]): < 400 nM

SMILES: CCOP1(=O)Cc2ccc(c(OC)c2)Nc2ncc(C(F)(F)F)c(n2)Nc2ccc(cc2C(=O)NC)-c2cnn(c2)CCCO1 (single isomer, unassigned) [4A]
IC50 [1]: < 400 nM
IC50 (FAK; [2]): 400 to 4000 nM
IC50 (FAK; [3]): 400 to 4000 nM
IC50 (FAK; [4]): < 400 nM
